Measurements reported in PubChem BioAssay AID540253 (National Center for Advancing Translational Sciences (NCATS), 2011).
This is a selection; strong and weak results do not stand in their true shares. Results filed as inconclusive are left out. Calls of active or inactive are those of the source. The call rests on the fitted dose curve.

Each compound was assayed against Snurportin-1 (Homo sapiens) + GTP-binding nuclear protein Ran (Homo sapiens) + Importin subunit beta-1 (Homo sapiens) (UniProt O95149+P62826+Q14974) (assay: qHTS Assay for Inhibitors of RanGTP induced Rango (Ran-regulated importin-beta cargo) - Importin beta complex dissociation). Details: Biochemical FRET Rango-importin beta; at 46.1 µM (top of the series).
Further: % of control where 0% means no effect; nearly all actives have a fitted effect of over 45% in size.

With O=C(NC1CCS(=O)(=O)C1)NP(=S)(Oc1ccccc1)Oc1ccccc1 (stereo not given) as the compound, how does the activity change, negative = inhibition read?
Its activity change, negative = inhibition is inactive: 7.47%.

How did the activity change, negative = inhibition turn out when c1ccc(-c2nn[nH]n2)c(-c2nn[nH]n2)c1 was run?
Its activity change, negative = inhibition is inactive: -5.43%.

With Cc1ccc(NP(=O)(Oc2cccc(C)c2)Oc2cccc(C)c2)nc1 as the compound, how does the activity change, negative = inhibition read?
The activity change, negative = inhibition was inactive: 12.8%.

O=P1(N(CCCl)CCCl)OCCC2CCCCN21 (stereo not given) was tested. Which activity change, negative = inhibition did it give?
The activity change, negative = inhibition was inactive: -1.09%.

With CCOC(=O)c1ccc(NP(C)(=O)Oc2ccc(F)cc2)cc1 (stereo not given) as the compound, how does the activity change, negative = inhibition read?
Its activity change, negative = inhibition is inactive: -8.27%.

With COc1ccc(OP(C)(=O)Nc2ccc(SC(F)(F)F)cc2)cc1 (stereo not given) as the compound, how does the activity change, negative = inhibition read?
Its activity change, negative = inhibition is inactive: 6.4%.

For Cc1c([N+](=O)[O-])cc([N+](=O)[O-])c(Br)c1[N+](=O)[O-], which activity change, negative = inhibition is on record?
The activity change, negative = inhibition was inactive: 12.9%.

How did the activity change, negative = inhibition turn out when COC(=O)c1cc2c(s1)N=C(c1ccccc1)N(C)P2(=O)N1CCOCC1 (stereo not given) was run?
The activity change, negative = inhibition was inactive: -10.3%.

How did the activity change, negative = inhibition turn out when CC(=O)NC(SC(=S)N(CC(C)C)CC(C)C)C(Cl)(Cl)Cl (stereo not given) was run?
The activity change, negative = inhibition was inactive: 7.05%.

Cc1ccc(OP(=O)(Nc2ccccn2)Oc2ccc(C)cc2)cc1 was tested. Which activity change, negative = inhibition did it give?
Its activity change, negative = inhibition is inactive: 8.77%.

How did the activity change, negative = inhibition turn out when O=C(OC1CN2CCC1CC2)c1ccccc1 (stereo not given) was run?
The activity change, negative = inhibition was inactive: -12.4%.

CCN(CC)CCCOC(=O)C(O)(c1ccccc1)C1CCCCC1 (stereo not given) was tested. Which activity change, negative = inhibition did it give?
The activity change, negative = inhibition was inactive: -2.99%.

CCC(=O)N1C2C3N(C(=O)CC)C1C1N(C(=O)CC)C(C(N1C(=O)CC)N3C(=O)CC)N2C(=O)CC was tested. Which activity change, negative = inhibition did it give?
The activity change, negative = inhibition was inactive: -3.51%.

CP(=O)(Nc1ccccc1)Oc1ccc(F)cc1 (stereo not given) was tested. Which activity change, negative = inhibition did it give?
The activity change, negative = inhibition was inactive: 25%.

Which activity change, negative = inhibition does the source give for CC(NC(=O)COC(=O)C(O)(c1ccccc1)c1ccccc1)c1ccccc1 (stereo not given) here?
The activity change, negative = inhibition was inactive: -11%.

With Cc1ccccc1OP(=O)(Nc1ccccn1)Oc1ccccc1C as the compound, how does the activity change, negative = inhibition read?
Its activity change, negative = inhibition is inactive: 0.175%.

How did the activity change, negative = inhibition turn out when CCCCCOc1ccc(NP(C)(=O)Oc2ccc(Cl)cc2Cl)cc1 (stereo not given) was run?
Its activity change, negative = inhibition is inactive: 0.46%.

Which activity change, negative = inhibition does the source give for O=c1c2cc([N+](=O)[O-])ccc2[nH]c2c([N+](=O)[O-])cc([N+](=O)[O-])cc12 here?
The activity change, negative = inhibition was inactive: 40%.

With CN(C)C(=O)Oc1noc2ccccc12 as the compound, how does the activity change, negative = inhibition read?
The activity change, negative = inhibition was inactive: 18.4%.

O=P1(Nc2nc3ccc(Cl)cc3s2)COc2ccccc2O1 (stereo not given) was tested. Which activity change, negative = inhibition did it give?
The activity change, negative = inhibition was inactive: -0.319%.

For CCOc1ccc(C2=NCC(CBr)S2)cc1 (stereo not given), which activity change, negative = inhibition is on record?
Its activity change, negative = inhibition is inactive: 2.55%.

Which activity change, negative = inhibition does the source give for CCc1cc(O)c([N+](=O)[O-])c(C)c1[N+](=O)[O-] here?
Its activity change, negative = inhibition is inactive: 2.56%.

For CP(=O)(Nc1ccccc1F)Oc1ccccc1 (stereo not given), which activity change, negative = inhibition is on record?
Its activity change, negative = inhibition is inactive: 0.128%.

Which activity change, negative = inhibition does the source give for CC(C)(C)C(=O)NC(Sc1ccccc1)C(Cl)(Cl)Cl (stereo not given) here?
The activity change, negative = inhibition was inactive: -0.582%.

Which activity change, negative = inhibition does the source give for CC(C)c1ccc(OP(C)(=O)Nc2ccc(SC(F)(F)F)cc2)cc1 (stereo not given) here?
The activity change, negative = inhibition was inactive: 4.28%.

How did the activity change, negative = inhibition turn out when CC(=O)c1ccc(N2CC2c2ccncc2)cc1 (stereo not given) was run?
Its activity change, negative = inhibition is inactive: -8.35%.

Which activity change, negative = inhibition does the source give for COC(=O)C1(C)COP(=O)(NCc2ccccc2)OC1 (stereo not given) here?
Its activity change, negative = inhibition is inactive: -1.25%.

With Cc1ccccc1CN(C)C(=O)COC(=O)C(O)(c1ccccc1)c1ccccc1 as the compound, how does the activity change, negative = inhibition read?
The activity change, negative = inhibition was inactive: 17.4%.

For O=C(OCCN1CCN(CCOCc2ccccc2)CC1)C(O)(c1ccccc1)c1ccccc1, which activity change, negative = inhibition is on record?
Its activity change, negative = inhibition is inactive: 0.0737%.

For C[C@H]1OP(=O)(Oc2ccccc2)C[C@@H]2O[C@@H]21 (stereo not given in full), which activity change, negative = inhibition is on record?
Its activity change, negative = inhibition is inactive: 0.893%.

Which activity change, negative = inhibition does the source give for C[C@@H]1C=CCP(=O)(Oc2ccccc2)O1 (stereo not given in full) here?
Its activity change, negative = inhibition is inactive: 12.6%.

CC(=O)Nc1ccc([As](=O)(O)O)c(O)c1 was tested. Which activity change, negative = inhibition did it give?
The activity change, negative = inhibition was inactive: 1.35%.

Which activity change, negative = inhibition does the source give for CC(=O)Nc1ccc(Oc2c([N+](=O)[O-])cc([N+](=O)[O-])cc2[N+](=O)[O-])cc1 here?
Its activity change, negative = inhibition is inactive: -2.14%.

CP(=O)(Nc1ccc(SC(F)(F)F)cc1)Oc1ccc(F)cc1 (stereo not given) was tested. Which activity change, negative = inhibition did it give?
The activity change, negative = inhibition was inactive: -7.55%.

CC(C)C(=O)NC(Sc1ccccc1)C(Cl)(Cl)Cl (stereo not given) was tested. Which activity change, negative = inhibition did it give?
Its activity change, negative = inhibition is inactive: -23.9%.

O=P(Nc1nccs1)(c1ccccc1)c1ccccc1 was tested. Which activity change, negative = inhibition did it give?
Its activity change, negative = inhibition is inactive: 4.79%.

With CCOP(C)(=S)SCC(=O)NC(C)(CC)C(=O)O (stereo not given) as the compound, how does the activity change, negative = inhibition read?
Its activity change, negative = inhibition is inactive: -4.06%.

For c1nnnn1CCn1cnnn1, which activity change, negative = inhibition is on record?
Its activity change, negative = inhibition is inactive: -1.05%.

Which activity change, negative = inhibition does the source give for CP(=O)(Nc1ccc2c(c1)OCCO2)Oc1ccccc1 (stereo not given) here?
The activity change, negative = inhibition was inactive: -15%.

With Cc1ccccc1NP(C)(=O)Nc1ccccc1C as the compound, how does the activity change, negative = inhibition read?
Its activity change, negative = inhibition is inactive: 7.66%.

How did the activity change, negative = inhibition turn out when COc1ccc(OP(C)(=O)Nc2cccc(Br)c2)cc1 (stereo not given) was run?
Its activity change, negative = inhibition is inactive: -5.7%.

COc1ccc(N)c([N+](=O)[O-])c1[N+](=O)[O-] was tested. Which activity change, negative = inhibition did it give?
The activity change, negative = inhibition was inactive: 23.1%.

How did the activity change, negative = inhibition turn out when O=P(Nc1ccccn1)(c1ccc(Br)cc1)c1ccc(Br)cc1 was run?
Its activity change, negative = inhibition is inactive: 7.21%.

For CN(C)C1(CNC(=O)c2ccc(Cl)c(S(N)(=O)=O)c2)CCCCC1, which activity change, negative = inhibition is on record?
Its activity change, negative = inhibition is inactive: 0.0616%.

CN(C)CCOC(=O)C(O)(c1ccccc1)C1CCCCC1 (stereo not given) was tested. Which activity change, negative = inhibition did it give?
The activity change, negative = inhibition was inactive: -1.84%.

With O=P(Nc1nc2ccccc2s1)(c1ccccc1)c1ccccc1 as the compound, how does the activity change, negative = inhibition read?
Its activity change, negative = inhibition is inactive: 2.22%.

C[C@H]1OP(=O)(Oc2ccccc2)[C@H](O)[C@H](O)[C@H]1N=[N+]=[N-] (stereo not given in full) was tested. Which activity change, negative = inhibition did it give?
Its activity change, negative = inhibition is inactive: -2.24%.

How did the activity change, negative = inhibition turn out when COc1ccc(NP(C)(=O)Oc2ccccc2OC)cc1 (stereo not given) was run?
The activity change, negative = inhibition was inactive: -15.8%.

O=[N+]([O-])c1ccc(O)c(/C=N/Nc2ccc([N+](=O)[O-])cc2[N+](=O)[O-])c1 was tested. Which activity change, negative = inhibition did it give?
The activity change, negative = inhibition was inactive: -12.3%.

How did the activity change, negative = inhibition turn out when O=[N+]([O-])c1ccc(OP2(=O)COCCO2)cc1 (stereo not given) was run?
Its activity change, negative = inhibition is inactive: 12.7%.

With CC(=O)NC(SC(=S)N(C)C)C(Cl)(Cl)Cl (stereo not given) as the compound, how does the activity change, negative = inhibition read?
Its activity change, negative = inhibition is inactive: 0.79%.

Which activity change, negative = inhibition does the source give for O=[N+]([O-])c1ncn(CCn2cnc([N+](=O)[O-])n2)n1 here?
The activity change, negative = inhibition was inactive: -0.92%.

How did the activity change, negative = inhibition turn out when O=[As](O)(c1ccccc1)c1ccc(O)cc1 was run?
The activity change, negative = inhibition was inactive: 2.09%.

With Cc1cc(-c2cccc3ccccc23)c(C)cn1.O=[N+]([O-])c1cc([N+](=O)[O-])c(O)c([N+](=O)[O-])c1 as the compound, how does the activity change, negative = inhibition read?
The activity change, negative = inhibition was inactive: -5.09%.

For Cc1c(C(c2ccc3c(c2)OCO3)c2c(C)n(C)n(-c3ccccc3)c2=O)c(=O)n(-c2ccccc2)n1C.O=[N+]([O-])c1cc([N+](=O)[O-])c(O)c([N+](=O)[O-])c1, which activity change, negative = inhibition is on record?
The activity change, negative = inhibition was inactive: 8.1%.

For C(Cc1nn[nH]n1)Cc1nn[nH]n1, which activity change, negative = inhibition is on record?
Its activity change, negative = inhibition is inactive: -11.4%.

With Nc1ccc([As](=O)(O)c2ccc([N+](=O)[O-])cc2)cc1 as the compound, how does the activity change, negative = inhibition read?
The activity change, negative = inhibition was inactive: 1.43%.

Which activity change, negative = inhibition does the source give for O=C(OC1CN2CCC1CC2)c1cccc(Cl)c1 (stereo not given) here?
The activity change, negative = inhibition was inactive: 1.08%.

How did the activity change, negative = inhibition turn out when Nc1ccc2c(ccc3cccnc32)n1.O=[N+]([O-])c1cc([N+](=O)[O-])c(O)c([N+](=O)[O-])c1 was run?
Its activity change, negative = inhibition is inactive: 6.17%.

With O=P1(N(CCCl)CCCl)OCCCS1 (stereo not given) as the compound, how does the activity change, negative = inhibition read?
Its activity change, negative = inhibition is inactive: -8.64%.
